Experimental data as given in ChEMBL document CHEMBL6096646, “Sulfonamide-derivatized galactosides selectively target an unexplored binding site in the galectin-9N-terminal domain” (Bioorg Med Chem, 2024).
Active and inactive are the calls of the source. No cut-off for these calls is given here.

The chains behind the UniProt entries cited, without tags or fusion partners.
UniProt P47929, whole entry: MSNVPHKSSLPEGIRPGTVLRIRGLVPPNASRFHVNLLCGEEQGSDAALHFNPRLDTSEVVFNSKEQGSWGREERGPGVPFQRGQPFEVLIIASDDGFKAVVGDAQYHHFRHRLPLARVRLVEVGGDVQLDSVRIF
UniProt P09382, whole entry: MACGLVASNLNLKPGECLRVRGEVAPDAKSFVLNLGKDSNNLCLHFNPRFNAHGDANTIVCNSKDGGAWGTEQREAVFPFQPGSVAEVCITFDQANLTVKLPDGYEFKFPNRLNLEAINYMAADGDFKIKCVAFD
UniProt P17931, whole entry: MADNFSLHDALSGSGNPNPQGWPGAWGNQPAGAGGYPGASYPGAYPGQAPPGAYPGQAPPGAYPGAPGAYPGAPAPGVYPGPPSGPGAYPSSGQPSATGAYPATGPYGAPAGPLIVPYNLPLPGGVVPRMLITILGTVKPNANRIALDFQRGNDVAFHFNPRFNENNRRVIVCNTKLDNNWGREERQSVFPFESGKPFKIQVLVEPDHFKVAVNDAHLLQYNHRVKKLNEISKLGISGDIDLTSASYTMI

Experiments:
Galectin-7 = Galectin-7 (Homo sapiens, UniProt P47929); assay: Binding affinity to human Galectin-7 at 2 mM by competitive fluorescence polarization assay
[1] = biological target: T1, Galectin-4 (Homo sapiens) (UniProt P56470); assay: Binding affinity to C-terminal human Galectin-4 at 2 mM by competitive fluorescence polarization assay
T1 sequence (whole entry): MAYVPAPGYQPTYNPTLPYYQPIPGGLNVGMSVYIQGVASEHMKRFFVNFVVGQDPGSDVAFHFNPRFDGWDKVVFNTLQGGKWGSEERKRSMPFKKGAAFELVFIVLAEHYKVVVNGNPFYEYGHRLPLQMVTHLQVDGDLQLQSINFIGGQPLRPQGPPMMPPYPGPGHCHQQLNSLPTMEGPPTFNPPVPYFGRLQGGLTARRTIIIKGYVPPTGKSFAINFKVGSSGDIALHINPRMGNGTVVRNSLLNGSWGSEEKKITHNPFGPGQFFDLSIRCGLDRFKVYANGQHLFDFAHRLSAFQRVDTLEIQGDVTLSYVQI

[2] = biological target: Galectin-1 (Homo sapiens) (UniProt P09382); assay: Binding affinity to human Galectin-1 at 2 mM by competitive fluorescence polarization assay
[3] = biological target: Galectin-9 (Homo sapiens) (UniProt O00182); assay: Binding affinity to N-terminal human Galectin-9 at 2 mM by competitive fluorescence polarization assay
[4] = biological target: Galectin-3 (Homo sapiens) (UniProt P17931); assay: Binding affinity to human Galectin-3 at 2 mM by competitive fluorescence polarization assay

| Activity (Galectin-7) | Activity [1] | Activity [2] | Activity [3] | Activity [4] | Structure (SMILES) |
| --- | --- | --- | --- | --- | --- |
| inactive | inactive | inactive |  |  | CO[C@H]1O[C@H](CO)[C@H](O)[C@H](n2cc(-c3ccccc3NS(=O)(=O)c3cccc4ccccc34)nn2)[C@H]1O |
| inactive | inactive | inactive | inactive | inactive | CO[C@H]1O[C@H](CO)[C@H](O)[C@H](n2cc(-c3ccccc3S(=O)(=O)N(C)c3ccccc3)nn2)[C@H]1O |
| inactive |  |  |  |  | CO[C@H]1O[C@H](CO)[C@H](O)[C@H](n2cc(-c3cccc(NS(=O)(=O)c4ccccc4)c3)nn2)[C@H]1O |
| inactive | inactive | inactive |  |  | CO[C@H]1O[C@H](CO)[C@H](O)[C@H](n2cc(-c3ccccc3NS(=O)(=O)C/C=C/c3ccccc3O)nn2)[C@H]1O |
| inactive |  |  | inactive | inactive | CO[C@H]1O[C@H](CO)[C@H](O)[C@H](n2cc(-c3cccc(S(=O)(=O)Nc4ccccc4)c3)nn2)[C@H]1O |
